One test concerns the target PDGFRβ (Homo sapiens (Human), UniProt P09619). Nature of the test: biochemical. To be noted: 10 μM ATP.
For the next test, the target named is IRAK1 (Homo sapiens (Human), UniProt P51617). The test is described as follows: Kd kinase binding assay IRAK1.

Protein sequences, listed by entry. Tags and fused reporters are not part of them. Residues count along the entry.
UniProt P09619, 33-1106 limits assumed: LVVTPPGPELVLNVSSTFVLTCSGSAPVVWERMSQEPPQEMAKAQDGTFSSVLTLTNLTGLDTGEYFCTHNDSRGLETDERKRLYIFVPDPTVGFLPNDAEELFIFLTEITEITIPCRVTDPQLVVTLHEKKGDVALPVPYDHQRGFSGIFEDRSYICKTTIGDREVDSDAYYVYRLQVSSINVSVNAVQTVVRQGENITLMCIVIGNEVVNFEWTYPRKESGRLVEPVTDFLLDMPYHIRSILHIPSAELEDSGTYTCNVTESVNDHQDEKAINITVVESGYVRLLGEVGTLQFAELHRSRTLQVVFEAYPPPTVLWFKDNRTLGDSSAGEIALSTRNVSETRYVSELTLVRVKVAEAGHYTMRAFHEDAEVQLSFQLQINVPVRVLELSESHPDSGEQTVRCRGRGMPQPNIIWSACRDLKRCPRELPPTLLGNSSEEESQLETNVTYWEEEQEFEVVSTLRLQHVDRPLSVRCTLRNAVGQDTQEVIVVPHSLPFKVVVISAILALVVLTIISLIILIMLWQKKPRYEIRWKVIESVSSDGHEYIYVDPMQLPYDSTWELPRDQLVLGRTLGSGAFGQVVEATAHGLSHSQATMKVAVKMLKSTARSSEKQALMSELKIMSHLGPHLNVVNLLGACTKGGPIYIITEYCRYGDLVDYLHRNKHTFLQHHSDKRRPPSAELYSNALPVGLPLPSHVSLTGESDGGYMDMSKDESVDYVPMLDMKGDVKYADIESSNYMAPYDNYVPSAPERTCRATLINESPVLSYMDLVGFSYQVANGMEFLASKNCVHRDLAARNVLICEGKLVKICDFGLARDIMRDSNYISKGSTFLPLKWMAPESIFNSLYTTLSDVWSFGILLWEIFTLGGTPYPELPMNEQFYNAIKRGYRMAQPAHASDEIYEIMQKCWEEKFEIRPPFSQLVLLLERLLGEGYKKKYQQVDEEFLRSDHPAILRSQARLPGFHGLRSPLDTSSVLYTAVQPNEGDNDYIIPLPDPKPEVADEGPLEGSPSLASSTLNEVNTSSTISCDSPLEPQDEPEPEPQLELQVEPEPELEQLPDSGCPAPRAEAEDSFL

In general, IC50 refers to the concentration needed to halve the response being measured. In general, Kd refers to the constant that tells how readily two partners part at equilibrium. Low values mean tighter binding, high ones weaker binding.

Consider `COc1cc2ncc(-c3cccc(NC4CCNC4)n3)n2cc1-c1cccnc1` (stereo not drawn) [Compound I-22, 6-(7-methoxy-6-(pyridin-3-yl)imidazo[1,2-a]pyridin-3-yl)-N-(pyrrolidin-3-yl)pyridin-2-amine], for which the IC50 against PDGFRβ (IC50 PDGFRb, 10-dose IC50 mode) worked out at 4.19 nM; against PDGFRβ (IC50 PDGFRβ), 3.57 nM. The dissociation constant (Kd) at IRAK1 stood at 3.5 nM.
